Assay results: ChEMBL document CHEMBL1821585, “Fluorinated cannabinoid CB2 receptor ligands: synthesis and in vitro binding characteristics of 2-oxoquinoline derivatives” (Bioorg Med Chem, 2011)

Organism: Homo sapiens
Assay: Selectivity ratio of Ki for human CB1 receptor to Ki for human CB2 receptor

SMILES: COc1ccc2cc(C(=O)NCCc3ccc(F)cc3)c(=O)[nH]c2c1OC
- Ratio Ki: > 2000
